Details: 40° C./75% Relative Humidity (RH), open exposure, 1 month; product of Example 4

Degradation (solid state stability): No significant degradation observed
SMILES: CN(CCOc1ccc(CC2SC(=O)NC2=O)cc1)c1ccccn1.O=C(O)C(O)C(O)C(=O)O [L(+) Tartrate, 5-[4-[2-(N-methyl-N-(2-pyridyl)amino)ethoxy]benzyl]thiazolidine-2,4-dione L-(+)-tartrate]
